# Measured values from PubChem BioAssay AID1346985 (Tox21, 2019).
# The entries are a selection whose mix differs from that of the whole data set. Results filed as inconclusive are left out. Calls of active or inactive are those of the source. Calls come from the whole dose curve; as a rule, active = well fitted activation curve with a large enough effect in the repeat runs; inconclusive = weak or mixed curves; inactive = flat fitted curve, though single readings scatter.
# Molecular target: Nuclear receptor subfamily 1 group I member 2 (Homo sapiens) (UniProt O75469)
# Assay: Human pregnane X receptor (PXR) activation by small molecules, qHTS assay; note: nearly all actives have a fitted effect of over 40% in size
# Conditions: DPX-2 HepG2 CYP3A4-luciferase, 24 h; series mostly up to 38.3 µM; activation: at the top concentration
# From the text: National Center for Advancing Translational Sciences [NCATS]
# NIH Chemical Genomics Center [NCGC]
# U.S. Environmental Protection Agency [EPA]
# National Institutes of Environmental Health Sciences [NIEHS]
# National Toxicology Program [NTP]
# The Pregnane X receptor (PXR), a ligand activated nuclear receptor plays a critical role in the regulation of genes involved in drug metabolism and transporters. Activation of PXR may be involved in the unwanted adverse drug-drug interactions. […] Therefore, identification of compounds with the potential for PXR activation can be of importance in improving the efficacy of drugs with less toxicity and avoiding drug-drug interactions.
# DPX-2 (Puracyp, Inc.) cell lines, used for screening against human PXR activation has HepG2 cells co-transfected with a PXR response element and a luciferase construct containing CYP3A4 promoter. Increase in luciferase activity can be used to identify the compounds that activate the PXR pathway.
# DPX-2 cells were dispensed at 2,000 cells per well in 5uL of assay medium into white, solid-bottom 1536-well plates using a Multidrop Combi dispenser (Thermo Scientific). […] Then 5ul One-Glo assay reagent (Promega) was added to each plate by a Flying Reagent Dispenser (FRD, Aurora Discovery) and following 30 min incubation at room temperature, luciferase activity was quantified on a ViewLux plate reader (Perkin Elmer).
# % is set by controls: 0 for no effect and ±100 for the full control effect; potency is the fitted concentration of half-maximal effect.
Compound,Potency,activation
CCC(=O)N(c1ccccc1)C1CCN(CCc2ccccc2)CC1,active: 10 µM,–
CN(CCCl)CCCl,–,inactive: 6.43%
